{"source": "patent US20020136691A1", "about": "“Pharmacological evaluation test (PET) in animals for continuous assessment of physiological functions” (priority 2000, published 2002)", "tested_on": "Sprague Dawley rats", "experiment": "CNS motility/activity recording by DSI telemetry", "type": "in vivo", "conditions": "for Motility, % Change from Control: female rats", "protocol": "At the same time as cardiovascular recording was occurring, the motility of the rats in the metabolism cages was also determined using the DSI telemetry equipment. Recording is continuous over four days of compound dosing.\nActivity was evaluated as averaged day and night values. The values of the first eleven hours after start of treatment were averaged to give a value for “day”; the values of the second eleven hours were averaged to give a value for “night”. These day and night values as well as the difference “night-day” and the percent difference from day were summarized. Kruskal-Wallis tests were performed for comparing difference and percent difference in the three treatment groups.", "note": "Marks after values point to notes of the source that are not given here.", "data": [{"molecule": "C[C@H](N)Cc1ccccc1", "note": "[d-amphetamine]", "values": [{"measurement": "Motility, day versus night", "setting": "2 and 8 mg/kg p.o., subacute", "value": "increased during the day as compared to the night"}, {"measurement": "Motility, % Change from Control", "setting": "2 mg/kg p.o., day 1, period day", "value": "+391* %"}, {"measurement": "Motility, % Change from Control", "setting": "2 mg/kg p.o., day 1, period night", "value": "+8%"}, {"measurement": "Motility, % Change from Control", "setting": "2 mg/kg p.o., day 2, period day", "value": "+405* %"}, {"measurement": "Motility, % Change from Control", "setting": "2 mg/kg p.o., day 2, period night", "value": "+5%"}, {"measurement": "Motility, % Change from Control", "setting": "2 mg/kg p.o., day 3, period day", "value": "+390* %"}, {"measurement": "Motility, % Change from Control", "setting": "2 mg/kg p.o., day 3, period night", "value": "−31", "unit": "%"}, {"measurement": "Motility, % Change from Control", "setting": "2 mg/kg p.o., day 4, period day", "value": "+320* %"}, {"measurement": "Motility, % Change from Control", "setting": "2 mg/kg p.o., day 4, period night", "value": "−47", "unit": "%"}, {"measurement": "Motility, % Change from Control", "setting": "8 mg/kg p.o., day 1, period day", "value": "+194* %"}, {"measurement": "Motility, % Change from Control", "setting": "8 mg/kg p.o., day 1, period night", "value": 0, "unit": "%"}, {"measurement": "Motility, % Change from Control", "setting": "8 mg/kg p.o., day 2, period day", "value": "+175* %"}, {"measurement": "Motility, % Change from Control", "setting": "8 mg/kg p.o., day 2, period night", "value": "−22", "unit": "%"}, {"measurement": "Motility, % Change from Control", "setting": "8 mg/kg p.o., day 3, period day", "value": "+182* %"}, {"measurement": "Motility, % Change from Control", "setting": "8 mg/kg p.o., day 3, period night", "value": "−29", "unit": "%"}, {"measurement": "Motility, % Change from Control", "setting": "8 mg/kg p.o., day 4, period day", "value": "+255* %"}, {"measurement": "Motility, % Change from Control", "setting": "8 mg/kg p.o., day 4, period night", "value": "−55", "unit": "%"}]}]}
